In PubChem BioAssay AID1259415 (National Center for Advancing Translational Sciences (NCATS), 2018):
The list shows a part of the results, in another mix than the full data. Results filed as inconclusive are left out. Calls of active or inactive are those of the source. No stated cut-off is given here; in the data, active means activity change below about -60%; inconclusive means no clear call, values can overlap the other calls; inactive means above about -39%.

experiment: qHTS Assay for inhibitors of the human cytomegalovirus (HCMV); conditions: HFF cells, HCMV-luciferase reporter, 72 h; at 57.5 µM; active compounds read low
Excerpt: NCGC Assay Overview: Infection with human cytomegalovirus (HCMV) continues to pose significant threats for pregnant women and immunocompromised hosts. HCMV causes serious morbidity and mortality in transplant recipients, and congenital HCMV is the leading infectious cause of mental retardation and deafness in children. In the 1990s, the annual costs associated with the disease burden of congenital CMV were estimated at around $2 billion. A HCMV vaccine is not available yet and HCMV therapies result in intolerable side effects and emergence of drug resistant viruses. […] Towards this goal we have developed and characterized a luciferase HCMV reporter that was initially used in 96 well plates and then optimized to 1536-well plates for utilization in screening of the MLSMR collection, the NGCG diversity collection and the NCGC Pharmaceutical Collection of approved and investigational drugs.
NCGC Assay Protocol Summary:
This is a cell-based assay for HCMV inhibition in HFFs cells. The screening used 2 compound doses and the HCMV-luciferase at MOI of 1 PFU/cell. Cells were treated and infected with HCMV. At 72 h post infection cell lysates were collected and luciferase activity was determined using the Glomax-Multi + Detection System (Promega, Madison, WI). Data were normalized to the controls for basal activity (buffer only) and known HCMV inhibitors Salinmoycin. […]
On the % scale 0 is the no-effect control and ±100 the full control effect.

**Q.** For CCC(=O)N(c1ccccc1)C1(COC)CCN(CCc2cccs2)CC1, which activity change, negative = inhibition is on record?
**A.** inactive: -7.67%

**Q.** With CCC(=O)N(c1ccccc1)C1(COC)CCN(CCn2nnn(CC)c2=O)CC1 as the molecule, how does the activity change, negative = inhibition read?
**A.** inactive: 1.55%
